# Patent US20260382588A1, “COMPOUNDS CONTAINING A HYDROXYPHENYL MOIETY AND THEIR USE” (published 2026)
# Tests used:
# [1] = In vivo toxicity of escalating IP doses in WT mice; details: i.p. 50 μg/kg to 300 μg/kg (FIG. 4A, weight tracking over 7 days)
# Source text: FIG. 4: In vivo effects of compound 28 (Z4P). (A) Weight tracking of animals treated with 3 different concentrations of compound 28 (Z4P) over 7 days. (B) Kaplan-Meier representation of mouse survival under this regiment (black: control; red: compound 28 (Z4P); blue: TMZ; yellow: compound 28 (Z4P)+TMZ). (C) Quantitative analysis of bioluminescence imaging signal over 35 days of experiment for the control (PBS) and compound 28 (Z4P) groups. Symbols and error bars represent mean values t SEM (number of animals are indicated in the Methods section of Biological evaluation).
# To characterize compound 28 (Z4P) in vivo, murine models growing orthotopic tumors generated by injection of U87-luc cells were utilized (25). First, intraperitoneal (IP) escalating doses of compound 28 (Z4P) (50 μg/kg to 300 μg/kg) were administered to determine compound 28 (Z4P) toxicity in vivo. This was done in WT mice and no toxicity was detected in any of the concentrations tested (FIG. 4A). […] At day 4 post implantation, a small tumor formation was detected using bioluminescence (data not shown). […] The splicing of Xbp1 mRNA was evaluated in control tumors and in animals treated with compound 28 (Z4P). […] Using the same mRNA samples, the expression levels of other GB invasion, inflammation and UPR markers using RT-qPCR were also evaluated (data not shown). […]
# [2] = test system: U87-luc orthotopic tumors; assay: mRNA expression (RT-qPCR) of GB invasion, inflammation, stemness and UPR markers in orthotopic U87-luc tumors; details: i.p. 300 μg/kg daily, 34 days
# Source text: Tumor cell orthotopic implantation—Tumor cells (U87-Luc (A. Jabouille, et al., Oncotarget, 2015, 6, 24922-24934)) were implanted into the brain of immunodeficient NMRI-Foxnlnu/Foxn1nu, 8 weeks old male mice (Janvier Laboratories, Laval, France). All animal procedures met the European Community Directive guidelines (Agreement B35-238-40 Biosit Rennes, France/No DIR 13480) and were approved by the local (University of Rennes) ethics committee and ensuring the breeding and the daily monitoring of the animals in the best conditions of wellbeing according to the law and the rule of 3R (Reduce-Refine-Replace). U87-Luc cells were implanted in the mouse brain by intracerebral injection followed by tumor growth monitoring using bioluminescence (PhotonIMAGER™ systems, BIOSPACE LAB). The mice were anesthetized intraperitoneally (i.p. mix Xylazine 10 mg/kg and Ketamin 60 mg/kg) and then fixed on a stereotactic frame. This framework makes it possible to manipulate the brains of living animals, and to reach isolated areas of the brain precisely relative to markings visible to the naked eye through the use of three-dimensional coordinates. After incising the scalp, the stereotaxic coordinates were calculated for injection of tumor cells into a specific point of the brain, and reproducible for all the mice used. In the study, the tumor cells (5×10^4 cells per mice in 1 μL) were injected at Bregma 0, 2.2 mm to the left of the bregma and 3.2 mm deep to perform the implantation at the level of the striatum.
# Mouse treatments—Four days after tumor cells implantation, compound 28 (Z4P) treatments were started consisting in treatments of 300 μg/kg/day intraperitonially. For the RNA quantification experiment, performed on tumors generated in mice, three mice per group were treated according to the methods above. Mice were sacrificed at day 34 and the brains were removed and extract the tumor. The samples were used to extract RNA for the analysis, as described below.
# Quantitative real-time PCR—Total RNA was prepared using TRIzol reagent (Invitrogen, Carlsbad, CA, USA). All RNAs were reverse-transcribed with Maxima Reverse Transcriptase (Thermo Scientific, Waltham, MA, USA), according to manufacturer protocol. qPCR was performed via a StepOnePlus™ Real-Time PCR Systems from Applied Biosystems and the SYBR Green PCR Core reagents kit (Takara). Analysis was carried out using QuantStudio™ Design and Analysis software version 1.3.1. Three technical repeats were performed per experiment and at least three biological repeats were performed per point per experiment. Each sample was extract individually for RNA and performed the quantification of mRNA levels by qPCR for several targets.
# To characterize compound 28 (Z4P) in vivo, murine models growing orthotopic tumors generated by injection of U87-luc cells were utilized (25). First, intraperitoneal (IP) escalating doses of compound 28 (Z4P) (50 μg/kg to 300 μg/kg) were administered to determine compound 28 (Z4P) toxicity in vivo. This was done in WT mice and no toxicity was detected in any of the concentrations tested (FIG. 4A). […] To do so, U87-luc cells were orthotopically implanted in the mouse brain and the tumor was allowed to grow. At day 4 post implantation, a small tumor formation was detected using bioluminescence (data not shown). Thereafter, mice were randomized in different groups and compound 28 (Z4P) daily treatments (i.p. 300 μg/kg) were administered for 34 consecutive days (FIG. 5A). Upon completion of this time period, mouse brains were entirely excised and dissected. The corresponding tumors were resected, dissociated and RNA was extracted from them. The splicing of Xbp1 mRNA was evaluated in control tumors and in animals treated with compound 28 (Z4P). […] Using the same mRNA samples, the expression levels of other GB invasion, inflammation and UPR markers using RT-qPCR were also evaluated (data not shown). […]
compound,measurement,setting,value
Cc1ccc(C)c(NC(=O)NC(C)CCc2ccc(O)cc2)c1 (racemic),toxicity in vivo,[1],no toxicity was detected
same,E-cadherin (Cdh1) mRNA,[2],remained unchanged
same,Vegfa mRNA,[2],levels decreased
same,Vimentin expression,[2],clear upregulation
same,"expression of stemness genes (Cd133, Olig2, Sox2, Cd44 and Sall2)",[2],no expression difference
same,"mRNA expression of ER stress markers (Chop, Herpud1 and Perk), apart from Bip",[2],decreased
same,mRNA levels of inflammation genes (11-6 and 11-8),[2],remarkable decrease
